According to article PMC6006426 (2018):

Test system: OCT2 and MATE1
Settings: based on Cmax,u with Kp,uu incorporated; mean ± S.D. (n = 11)

Prediction of SCr increase, Cmax,u · Kp,uu: 4.27 ± 1.43%
SMILES: COc1cc2ncnc(Nc3ccc(F)c(Cl)c3)c2cc1OCCCN1CCOCC1 [Gefitinib, gefitinib]
